Experimental data taken from patent publication US20160038571A1.

Target: calcineurin (CNA/B) (UniProt Q08209)
Assay: ITC

- Kd: 0.15 µM
- fold increase in affinity (against RCAN1^128-164): 2 fold
Substance: RCAN1^128-164 with PSVVVH (SEQ ID NO: 13) mutated to PVIVIT (SEQ ID NO: 19) (peptide)
